The target in test [1] is RAF proto-oncogene serine/threonine-protein kinase (Homo sapiens, UniProt P04049, Y340E/Y341E). In words: Inhibition of CRAF Y340E/Y341E mutant (unknown origin) using human MEK1 K97R mutant as substrate pretreated for 30 mins followed by substrate addition measured after 40 mins by alphascreen assay. For orientation: Alpha assays give light when donor and acceptor beads are brought close together.

Protein sequences, listed by entry. Tags and fused reporters are not part of them.
UniProt P04049, whole entry Y340E/Y341E: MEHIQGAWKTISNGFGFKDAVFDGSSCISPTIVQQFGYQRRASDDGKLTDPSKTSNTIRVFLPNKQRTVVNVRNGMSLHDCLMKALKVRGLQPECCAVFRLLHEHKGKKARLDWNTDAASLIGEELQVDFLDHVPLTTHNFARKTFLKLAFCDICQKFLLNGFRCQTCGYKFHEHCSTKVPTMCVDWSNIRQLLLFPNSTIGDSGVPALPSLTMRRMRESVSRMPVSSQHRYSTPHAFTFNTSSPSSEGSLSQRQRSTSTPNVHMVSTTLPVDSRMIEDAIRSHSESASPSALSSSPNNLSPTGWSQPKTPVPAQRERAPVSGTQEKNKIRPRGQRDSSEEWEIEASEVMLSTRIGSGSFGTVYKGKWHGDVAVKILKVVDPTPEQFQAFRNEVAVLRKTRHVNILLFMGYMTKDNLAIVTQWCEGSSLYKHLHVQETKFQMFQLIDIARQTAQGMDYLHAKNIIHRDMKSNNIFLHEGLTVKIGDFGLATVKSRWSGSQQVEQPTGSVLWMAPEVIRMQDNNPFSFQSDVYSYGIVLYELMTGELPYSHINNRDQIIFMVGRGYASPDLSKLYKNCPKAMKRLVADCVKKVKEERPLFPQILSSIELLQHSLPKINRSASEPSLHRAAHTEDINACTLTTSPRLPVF

In test [2] the target is RAF proto-oncogene serine/threonine-protein kinase (Homo sapiens, UniProt P04049). As to the kind of experiment: Inhibition of CRAF in human Calu6 cells assessed as reduction MEK phosphorylation measured after 1 hr by sandwich ELISA. In kind it is cell-based.

Among the data in ChEMBL document CHEMBL4342410, “Design and Discovery of N-(3-(2-(2-Hydroxyethoxy)-6-morpholinopyridin-4-yl)-4-methylphenyl)-2-(trifluoromethyl)isonicotinamide, a Selective, Efficacious, and Well-Tolerated RAF Inhibitor Targeting RAS Mutant Cancers: The Path to the Clinic” (J Med Chem, 2020) are IC50 and EC50 values, retold here.

pEC50, pIC50: −log10 of the molar value.

Broadly, the pIC50 is −log10 of the IC50, conventionally taken in molar units. Broadly, the pEC50 is −log10 of the EC50, conventionally taken in molar units.

Turning to `[2H]C1(Oc2ncc(-c3cc(NC(=O)c4cccc(C(F)(F)F)c4)cnc3C)cc2N2CCOCC2)CCOCC1`, the pIC50 in test [1] is 9.40. In addition, the negative logarithm of the EC50 (pEC50) in test [2] is 8.22.

In the case of `Cc1ncc(NC(=O)c2cccc(C(F)(F)F)c2)cc1-c1c[nH]c(=O)c(N2CCOCC2)c1`, the negative-log IC50 (pIC50) in test [1] was 9.05. Moreover, in test [2], the negative logarithm of the EC50 (pEC50) is 7.19.
